Measured values: patent US20060067886A1, “Gastrin receptor-avid peptide conjugates” (priority 1997, published 2006)

Key:
in vivo = settings: SCID, mouse, iv, 4 uCi, total radioactivity, Avg % ID/gm
Method: In vivo pharmacokinetic studies in human tumor bearing SCID mice. […] The xenograft models were produced by bilateral flank inoculation of 5×10^6 cells (PC-3 or MDA-MB-231 cells) per site. Four to six weeks post inoculation, palpable tumors were observed. At this point, the mice were injected with 4 μCi of the complex in […] of isotonic saline via the tail vein. The mice were euthanized and tissues and organs were excised from the animals at selected times post-injection (p.i.), including 15 minutes, 30 minutes, 1 hour, 4 hours, 24 hours, 48 hours, and 72 hours p.i. Subsequently, the tissues and organs were weighed and counted in a NaI well counter and the percent injected dose (% ID) and % ID/g of each organ or tissue calculated.
The mice were injected with 4 μCi of the complex in 100 μL of isotonic saline via the tail vein. The mice were euthanized by cervical dislocation. Tissues and organs were excised from the animals following at 1 hour, 4 hour, and 24 hours post-injection (p.i.). Subsequently, the tissues and organs were weighed and counted in a NaI well counter and the percent injected dose (% ID) and % ID/g of each organ or tissue calculated.

[1] = Biodistribution of radiometal-DOTA-BBN conjugates in CF1 normal mice; settings: 1 hour post-injection

## CSCC[C@H](NC(=O)[C@H](CC(C)C)NC(=O)[C@H](Cc1cnc[nH]1)NC(=O)CNC(=O)[C@@H](NC(=O)[C@H](C)NC(=O)[C@H](Cc1c[nH]c2ccccc12)NC(=O)[C@H](CCC(N)=O)NC(=O)CCCCCCCNC(=O)CN1CCN(CC(=O)O)CCN(CC(=O)O)CCN(CC(=O)O)CC1)C(C)C)C(N)=O [111In-DOTA-8-Aoc-BBN[7-14]NH2, metal not drawn]
In vivo; Lung, 15 min
  tissue uptake at 0.25 h: 3.35 ± 1.22 %ID/g
In vivo; Tumor, 1 hr
  tissue uptake at 1 h: 3.63 ± 1.11 %ID/g

## CSCC[C@H](NC(=O)[C@H](CC(C)C)NC(=O)[C@H](Cc1cnc[nH]1)NC(=O)CNC(=O)[C@@H](NC(=O)[C@H](C)NC(=O)[C@H](Cc1c[nH]c2ccccc12)NC(=O)[C@H](CCC(N)=O)NC(=O)CCCCCCCNC(=O)CN1CCN(CC(=O)O)CCN(CC(=O)O)CCN(CC(=O)O)CC1)C(C)C)C(N)=O [149Pm-DOTA-8-Aoc-BBN[7-14]NH2]
[1]
  Avg % ID/gm, Heart: 0.03 ± 0.06 % ID/gm
  Avg % ID/gm, Kidney: 3.74 ± 1.02 % ID/gm

## CSCC[C@H](NC(=O)[C@H](CC(C)C)NC(=O)[C@H](Cc1cnc[nH]1)NC(=O)CNC(=O)[C@@H](NC(=O)[C@H](C)NC(=O)[C@H](Cc1c[nH]c2ccccc12)NC(=O)[C@H](CCC(N)=O)NC(=O)CCCCCCCNC(=O)CN1CCN(CC(=O)O)CCN(CC(=O)O)CCN(CC(=O)O)CC1)C(C)C)C(N)=O [177Lu-DOTA-8-Aoc-BBN[7-14]NH2] [metal not drawn]
[1]
  Avg % ID, Lung: 0.03 ± 0.04 % ID
